Protein sequences, listed by entry. Tags and fused reporters are not part of them.
UniProt P20272, whole entry: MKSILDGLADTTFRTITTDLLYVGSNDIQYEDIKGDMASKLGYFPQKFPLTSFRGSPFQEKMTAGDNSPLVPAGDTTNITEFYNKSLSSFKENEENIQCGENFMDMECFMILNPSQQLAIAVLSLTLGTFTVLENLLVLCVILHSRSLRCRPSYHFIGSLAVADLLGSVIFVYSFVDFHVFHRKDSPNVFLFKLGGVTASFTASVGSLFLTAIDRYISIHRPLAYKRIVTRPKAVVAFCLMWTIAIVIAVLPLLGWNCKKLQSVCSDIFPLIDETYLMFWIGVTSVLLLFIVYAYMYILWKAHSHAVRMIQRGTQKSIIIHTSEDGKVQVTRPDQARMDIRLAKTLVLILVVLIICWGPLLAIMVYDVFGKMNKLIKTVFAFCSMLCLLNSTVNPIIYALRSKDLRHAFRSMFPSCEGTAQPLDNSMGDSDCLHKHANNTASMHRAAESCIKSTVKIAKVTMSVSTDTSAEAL

In patent EP0670826B1, “FATTY ACID DERIVATIVES AND PHARMACEUTICAL COMPOSITIONS CONTAINING THEM” (YISSUM RESEARCH DEVELOPMENT COMPANY OF THE HEBREW …, priority 1992, dated 1994):

Molecular target: T1, cannabinoid receptor (Rattus norvegicus, UniProt P20272)
T1 construct: Synaptosomal membranes were prepared from rat whole brain-minus brainstem; from tissue; host or cells: rat whole brain minus brainstem, synaptosomal membranes (Sprague-Dawley males)
Test: centrifugation radioligand binding assay with [3H]HU-243 on synaptosomal membranes

SMILES: CCCCC/C=C\C/C=C\C/C=C\C/C=C\CCCC(=O)NCCO [Arachidonylethanolamide, 5,8,11,14-icosatetraenamide, (N,-2-hydroxyethyl)-(all-Z)]
- Ki: 52 nM
